Only a part is listed here, and it is no random draw. Activity calls are given as the source filed them.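 Rule for the calls: active = response, share of CD8 T cells binding vesicles, and their 90th percentile fluorescence all below set limits (cut at about 80% in these data, passing the limit was not always enough); inactive = the rest, inconclusive results apart.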

The results in this text go back to PubChem BioAssay AID2052 (NMMLSC, 2009).

The test in a line: murine CD8 T cell vesicle adhesion modulation – mouse 2C CD8+ T cells, flow cytometry, primary screen (AID 2052).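 Note: values below 100% mean blocked vesicle binding to the CD8+ T cells.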 The following applies: 2C CD8+ T cell-vesicle binding, at 7 µM, active compounds read low. In short, it runs like this: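 Material: 2C TCR transgenic mouse naive CD8+ T cells, MACS-purified. Also added: QL9-charged Drosophila Ld/ICAM-1/B7-1 vesicles. Timing: binding 1.5 h at 37 °C. Measured by: high-throughput flow cytometry with anti-B7-1 and anti-CD8 staining. Read-out: percent CD8+ FL2 mean versus row control. Controls: Unloaded micro-vesicles (low), QL9 vesicles with 0.7% DMSO (high).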
`O=C(NCC1(N2CCCCC2)CCCCC1)c1ccc(Cl)s1`: the response (vesicle binding) was inactive: 428%.

With `O=C(OC1CN2CCC1CC2)C1c2ccccc2Oc2ccccc21` (stereo unspecified), the response (vesicle binding) was inactive: 494%.

`COc1ccc(Cl)cc1C(=O)NCC1(N2CCOCC2)CCCCC1`: the response (vesicle binding) is inactive: 205%.

For the compound `O=C(NCC1(N2CCOCC2)CCCCC1)c1cc2ccccc2o1`, the response (vesicle binding) is inactive: 369%.

As for `O=C(NCC1(N2CCCCC2)CCCCC1)c1ccc(Cl)nc1`, the response (vesicle binding) was inactive: 522%.

With `Cc1cc(C)cc(N(C(=O)c2ccccc2)C2CCN(C(=O)OC(C)(C)C)CC2)c1`, the response (vesicle binding) was inactive: 412%.

Consider `CSc1ccccc1C(=O)NCC1(N2CCCCC2)CCCCC1`, for which the response (vesicle binding) is inactive: 341%.

With `O=C(NCC1(N2CCCCC2)CCCCC1)c1ccc(=O)[nH]c1`, the response (vesicle binding) is inactive: 290%.

Regarding `O=C(NCC1(N2CCCCC2)CCCCC1)c1cccs1`, the response (vesicle binding) is inactive: 342%.

Turning to `COc1ccc(C(=O)NCC2(N3CCCCC3)CCCCC2)cc1`, the response (vesicle binding) is inactive: 492%.

Turning to `COc1ccc(C(=O)NCC2(N3CCCCC3)CCCCC2)c(OC)c1OC`, the response (vesicle binding) was inactive: 472%.

With `CC(C)(C)OC(=O)N1CCC(N(C(=O)c2ccccc2)c2ccc(F)cc2)CC1`, the response (vesicle binding) was inactive: 226%.

Turning to `CCOC(=O)N1CCC(Nc2cccc(C)c2)CC1`, the response (vesicle binding) was inactive: 234%.

In the case of `COc1cc(C(=O)NCC2(N(C)C)CCCCC2)ccc1OC(F)F`, the response (vesicle binding) was inactive: 183%.

Take `Cc1ccc(OCC(C)C)c(CN(CCCl)CCCl)c1`: the response (vesicle binding) was inactive: 248%.

Take `O=C(NCC1(N2CCCCC2)CCCCC1)c1ccc(F)cc1`: the response (vesicle binding) was inactive: 177%.

With `COc1ccc(NC2CCN(CCc3ccccc3)CC2)c(OC)c1`, the response (vesicle binding) was inactive: 609%.

For `CCOC(=O)N1CCC(Nc2ccc(F)cc2)CC1`, the response (vesicle binding) was inactive: 164%.

Take `CCOc1ccc(C)cc1CN(CCCl)CCCl`: the response (vesicle binding) is inactive: 486%.

Take `CN1CCN(CCOC(=O)C(O)(c2ccccc2)c2ccccc2)CC1`: the response (vesicle binding) was inactive: 420%.

On to `COc1ccc(NC2CCN(C(=O)OC(C)(C)C)CC2)cc1`, for which the response (vesicle binding) was inactive: 487%.

Take `COc1cc(C(=O)NCC2(N3CCCCC3)CCCCC2)ccc1OC(F)F`: the response (vesicle binding) was inactive: 491%.

With `O=C(NCC1(N2CCOCC2)CCCCC1)c1cc(=O)[nH]c2ccccc12`, the response (vesicle binding) was inactive: 226%.

`O=C(NCC1(N2CCCCC2)CCCCC1)c1cccc(C(F)(F)F)c1`: the response (vesicle binding) was inactive: 293%.

Consider `O=C(NCC1(N2CCCCC2)CCCCC1)c1cccc([N+](=O)[O-])c1`, for which the response (vesicle binding) was inactive: 524%.

As to `CCN1CCC(Nc2ccc(Cl)cc2)CC1`, the response (vesicle binding) was inactive: 264%.

Take `N#CC1(Nc2ccccc2)CCN(CCc2ccccc2)CC1`: the response (vesicle binding) was inactive: 406%.

As for `O=C(NCC1(N2CCCCC2)CCCCC1)c1ccc(OC(F)F)cc1`, the response (vesicle binding) is inactive: 458%.

As for `CCCOc1ccc(C(=O)NCC2(N(C)C)CCCCC2)cc1OC`, the response (vesicle binding) was inactive: 185%.

With `CN1CCC(Nc2cccc(F)c2)CC1`, the response (vesicle binding) is inactive: 381%.

In the case of `O=C(NCC1(N2CCCCC2)CCCCC1)c1cncc(Br)c1`, the response (vesicle binding) was inactive: 318%.

For the compound `COc1cc(OC)c(C(=O)NCC2(N(C)C)CCCCC2)cc1OC`, the response (vesicle binding) was inactive: 37.8%.

As for `O=C(NCC1(N2CCOCC2)CCCCC1)c1cc(F)c(F)cc1Cl`, the response (vesicle binding) was inactive: 239%.

For `COc1ccc(CN(CCCl)CCCl)cc1Cl`, the response (vesicle binding) was inactive: 191%.

Consider `CN(C)c1cccc(C(=O)NCC2(N3CCCCC3)CCCCC2)c1`, for which the response (vesicle binding) is inactive: 292%.

Regarding `CC(C)c1ccc(NC2CCN(C(=O)OC(C)(C)C)CC2)cc1`, the response (vesicle binding) is inactive: 968%.
